Source: publication PMC6026870, “Selective induction of cancer cell death by VDAC1‐based peptides and their potential use in cancer therapy” (Molecular Oncology, 2018)

How the values were obtained:
[1] = Peptide solubility (absorbance of supernatant); assay type: physicochemical; conditions: 5 mM in 5% DMSO diluted to 1.1 mM in HBSS; A280 of supernatant after 12,000g, before and after 75 min at 24 °C; relative to Tf‐D‐LP4 (Fig. S3C)
Description: (§1) Purified HK-I (13 µg/ml) was pre-incubated with the indicated concentrations of Tf-D-LP4 (●) or R-Tf-D-LP4 (○) and assayed for HK activity as described in Materials and Methods. Change in absorbance at 340 nm (NADH production) was spectrophotometrically measured following addition of 1 mM ATP, and 0.05 unit/ml glucose-6-phosphate dehydrogenase. C. Tf-D-LP4 and R-Tf-D-LP4 solubility. The peptides were dissolved to a final concentration of 5 mM in 5% DMSO and diluted to 1.1 mM in HBSS. Peptide absorbance in the supernatant was measured at 280 nm following centrifugation at 12,000g before and after 75 min incubation at 24 °C. D, E. Tf-D-LP4 and R-Tf-D-LP4 (0.5 mM in 5% DMSO) were incubated at -20 °C (○), 4 °C (●) or 24 °C (▲) and at the indicated time, aliquots (10 µM, final concentration) were assayed for cell death as described in Materials and Methods. Cell death was analyzed using PI and FACS analysis. In control cells, cell death was 3%, while peptide treatment led to levels of cell death over 90%.

[2] = tested on: A549‐, MDA‐MB‐231‐, and U‐87MG‐derived tumors; assay: qPCR of excised xenograft tumors; assay type: in vivo, mouse; conditions: A549, MDA‐MB‐231, U‐87MG tumors, vs control tumors, n = 3 (Fig. 6F)
Description: U‐87MG cells (3 × 10^6/mouse), A549 cells (5 × 10^6/mouse), or MDA‐MB‐231 cells (3 × 10^6/mouse) were inoculated subcutaneously (s.c.) into the hind leg flanks of athymic 8‐week‐old male nude mice (Envigo, Huntingdon, UK). Tumor size was measured using a digital caliper and volume was calculated, and when reached 50–100 mm^3 for each tumor type, mice were randomly divided into two groups (five mice per group). One group was intratumorally injected with HBSS (5.33 mM KCl, 0.44 mM KH2PO4, 138 mM NaCl, 4 mM NaHCO3, 0.3 mM Na2HPO4, and 5.6 mM glucose, pH 7.3) containing 0.05% DMSO and the second group with the peptide in HBSS containing 0.05% DMSO, with the R‐Tf‐D‐LP4 peptide at a final concentration of 40 or 60 μM. The xenografts were injected (two points, 20 μL per tumor) every two days. Beginning on the day of inoculation, mouse weight and tumor volume were monitored twice a week. […]
Total RNA was isolated from untreated and peptide‐treated tumors (three mice each) using an RNeasy Mini Kit (Qiagen, Hilden, Germany) according to the manufacturer's instructions. Total RNA quality was analyzed using the Agilent RNA 6000 Nano Kit. […] The copy numbers for each sample were calculated by the CT‐based calibrated standard curve method. The mean fold changes (±SE) of three replicates were calculated.

[3] = tested on: PANC1; assay type: cell-based; conditions: 6 h
Description: (§2) Leukemia cells, U‐937, MEC‐1 cells (4 × 10^5 or 8 × 10^5 cells/sample, respectively), as well as other leukemia or suspension cell lines, were incubated in 200 μL serum‐free medium with various concentrations of the peptide for 90 min at 23–25 °C, collected by centrifugation (500 g, 5 min), washed with PBS, and analyzed for cell death. Adherent cells (6 × 10^5 mL^−1 at 70–80% confluence) were incubated with the peptide of interest in 500 μL serum‐free recommended culture medium for 3–6 h at 37 °C and 5% CO2. The cells were then trypsinized, centrifuged (1500 g, 5 min), washed with PBS, and analyzed for the desired activity. Following peptide treatment, cells were subjected to cell death analysis. Propidium iodide (PI) staining was performed by addition of PI (6.25 μg·mL^−1) to the cells and immediate analysis by the EC800 Flow cytometer Analyzer–Eclipse or the FACS caliber (Becton‐Dickinson, San Jose, CA, USA) and BD […] PRO software (BD Biosciences, San Jose, CA, USA).
(§3) Forty‐one cancerous and five noncancerous cell lines were used in this study to examine the cell‐killing activity of the VDAC1‐based peptides Antp‐LP4, Tf‐LP4, Tf‐D‐LP4, R‐Tf‐D‐LP4, N‐Ter‐Antp, and others (Figs 1, 2, 3 and Tables 1, 2, 3). For each line, cells were incubated with different peptide concentrations, and cell death was determined by PI staining and FACS analysis (Figs 1, 2, 3). In addition, for each cell line, the concentration of the peptide inducing 50% cell death (EC50) was determined (Tables 1, 2, 3).

[4] = tested on: A549; assay type: cell-based; conditions: 6 h
Description: as §2, §3

[5] = Peptide stability on storage, read out as cell death activity; assay type: physicochemical
Description: as §1

[6] = target: T1, Human hexokinase II (HK‐II), recombinant (human, UniProt P52789 1-917, fluorescently labeled using a NanoTemper BLUE protein‐labeling kit (in the MST)); assay: MST
T1 chain: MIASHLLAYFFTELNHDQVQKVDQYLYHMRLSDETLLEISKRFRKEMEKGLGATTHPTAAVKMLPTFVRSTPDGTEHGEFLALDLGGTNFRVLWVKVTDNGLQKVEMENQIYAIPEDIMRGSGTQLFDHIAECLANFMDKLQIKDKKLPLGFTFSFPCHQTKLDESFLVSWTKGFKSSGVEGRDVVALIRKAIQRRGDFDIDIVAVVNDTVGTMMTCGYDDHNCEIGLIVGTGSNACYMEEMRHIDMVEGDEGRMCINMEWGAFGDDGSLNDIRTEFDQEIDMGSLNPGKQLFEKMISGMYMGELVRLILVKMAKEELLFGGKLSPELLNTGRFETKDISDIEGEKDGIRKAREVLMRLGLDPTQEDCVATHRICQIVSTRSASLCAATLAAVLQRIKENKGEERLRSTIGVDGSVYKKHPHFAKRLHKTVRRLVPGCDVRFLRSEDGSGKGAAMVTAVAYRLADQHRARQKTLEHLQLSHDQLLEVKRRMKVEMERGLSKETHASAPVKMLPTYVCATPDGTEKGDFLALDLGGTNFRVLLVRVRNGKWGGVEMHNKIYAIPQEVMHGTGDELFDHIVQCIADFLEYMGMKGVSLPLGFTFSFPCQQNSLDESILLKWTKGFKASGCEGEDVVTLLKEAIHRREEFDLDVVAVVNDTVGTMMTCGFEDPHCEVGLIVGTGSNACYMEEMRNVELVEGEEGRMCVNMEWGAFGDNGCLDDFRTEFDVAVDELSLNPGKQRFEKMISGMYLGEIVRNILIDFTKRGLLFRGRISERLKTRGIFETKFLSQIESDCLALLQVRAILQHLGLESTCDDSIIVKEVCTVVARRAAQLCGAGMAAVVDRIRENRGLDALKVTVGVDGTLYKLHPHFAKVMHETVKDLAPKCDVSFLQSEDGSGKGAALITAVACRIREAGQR

[7] = target: T2, Human hexokinase I (HK‐I), recombinant (human, UniProt P19367 1-917, fluorescently labeled using a NanoTemper BLUE protein‐labeling kit (in the MST)); assay: MST
T2 chain: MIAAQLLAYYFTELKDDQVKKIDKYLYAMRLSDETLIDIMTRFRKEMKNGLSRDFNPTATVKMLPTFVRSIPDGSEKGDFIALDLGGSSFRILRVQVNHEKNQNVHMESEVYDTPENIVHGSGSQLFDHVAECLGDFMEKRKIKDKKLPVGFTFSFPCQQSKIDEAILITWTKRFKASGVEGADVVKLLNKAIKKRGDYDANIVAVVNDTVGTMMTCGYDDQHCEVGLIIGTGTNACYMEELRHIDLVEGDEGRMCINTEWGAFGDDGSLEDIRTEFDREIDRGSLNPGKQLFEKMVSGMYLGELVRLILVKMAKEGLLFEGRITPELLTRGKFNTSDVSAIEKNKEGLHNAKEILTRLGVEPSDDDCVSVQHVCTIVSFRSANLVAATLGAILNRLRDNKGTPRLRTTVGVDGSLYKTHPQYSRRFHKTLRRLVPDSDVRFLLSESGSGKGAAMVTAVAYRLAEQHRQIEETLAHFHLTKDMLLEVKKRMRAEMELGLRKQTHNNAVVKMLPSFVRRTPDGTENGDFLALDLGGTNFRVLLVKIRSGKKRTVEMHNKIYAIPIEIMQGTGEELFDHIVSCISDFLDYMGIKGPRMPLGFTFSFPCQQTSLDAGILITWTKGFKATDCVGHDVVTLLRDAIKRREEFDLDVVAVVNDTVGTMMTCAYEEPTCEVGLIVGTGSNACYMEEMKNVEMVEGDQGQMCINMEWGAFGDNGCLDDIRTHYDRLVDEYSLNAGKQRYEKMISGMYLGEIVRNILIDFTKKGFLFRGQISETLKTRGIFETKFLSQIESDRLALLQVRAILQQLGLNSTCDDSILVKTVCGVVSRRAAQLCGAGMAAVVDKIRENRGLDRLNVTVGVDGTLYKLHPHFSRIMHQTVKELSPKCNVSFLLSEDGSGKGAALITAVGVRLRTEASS

Row | Kd [6] | Kd [7] | Molecule | solubility [1] | decrease in Ki‐67 mRNA levels in peptide‐TTs [2] | EC50 [3] | EC50 [4] | cell death on peptide treatment ([5]; 10 µM final concentration, PI and FACS, control cells 3%, cell line not printed (Fig. S3D,E)) | stability with respect to temperature and incubation time ([5]; 0.5 mM in 5% DMSO at -20, 4 or 24 °C, aliquots (10 µM final) assayed for cell death, PI/FACS, relative to Tf‐D‐LP4 (Fig. S3D,E))
1 |  |  | CC[C@H](C)[C@H](NC(=O)[C@H](Cc1ccc(O)cc1)NC(=O)[C@@H]1CCCN1C(=O)[C@H](CCCNC(=N)N)NC(=O)[C@H](Cc1c[nH]cn1)NC(=O)[C@@H](CO)NC(=O)[C@@H](Cc1c[nH]c2ccccc12)NC(=O)[C@H](NC(=O)[C@@H](Cc1c[nH]c2ccccc12)NC(=O)[C@@H](CCC(=O)O)NC(=O)[C@@H](CCCCN)NC(=O)[C@@H](CCCCN)NC(=O)[C@@H](CC(C)C)NC(=O)[C@@H](CCC(=O)O)NC(=O)[C@H](NC(=O)[C@@H](C)NC(=O)[C@H](NC(=O)[C@@H](CC(N)=O)NC(=O)[C@@H](CC(C)C)NC(=O)[C@@H](C)NC(=O)[C@@H](Cc1c[nH]c2ccccc12)NC(=O)[C@H](NC(=O)[C@@H](C)NC(=O)CNC(=O)[C@@H](CC(N)=O)NC(=O)[C@@H](CO)NC(=O)[C@@H](CC(N)=O)NC(=O)[C@@H](CCCCN)NC(=O)[C@@H](Cc1c[nH]c2ccccc12)NC(=O)[C@H](NC(=O)[C@@H](Cc1c[nH]c2ccccc12)NC(=O)[C@H](N)CCCCN)[C@H](C)O)[C@H](C)O)C(C)C)[C@H](C)O)[C@H](C)O)C(=O)N[C@@H](C)C(=O)N[C@@H](Cc1c[nH]cn1)C(=O)O [R‐Tf‐D‐LP4] | increased solubility | two‐ to threefold | 3.5 ± 0.1 µM | 2.7 ± 0.5 µM | over 90% | more stability with respect to temperature and incubation time
2 | 9.5 µM | 10.5 µM | HAIYPRHSWTWEKKLETAVNLAWTAGNSNKWTWK (only the amino acids of the VDAC1‐derived sequence are in D‐configuration) [Tf‐D‐LP4] |  |  |  |  |  | 
